SMILES strings stand for the structures. Only a part is listed here, and it is no random draw. Active and inactive are the calls of the source.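 How the source made its calls: active means inhibition above 20% in each of the two 10-compound mixture wells holding the compound; inactive means the rest.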

The chains behind the UniProt entries cited, without tags or fusion partners. Residues count along the entry.
UniProt P09871, 16-437 limits assumed: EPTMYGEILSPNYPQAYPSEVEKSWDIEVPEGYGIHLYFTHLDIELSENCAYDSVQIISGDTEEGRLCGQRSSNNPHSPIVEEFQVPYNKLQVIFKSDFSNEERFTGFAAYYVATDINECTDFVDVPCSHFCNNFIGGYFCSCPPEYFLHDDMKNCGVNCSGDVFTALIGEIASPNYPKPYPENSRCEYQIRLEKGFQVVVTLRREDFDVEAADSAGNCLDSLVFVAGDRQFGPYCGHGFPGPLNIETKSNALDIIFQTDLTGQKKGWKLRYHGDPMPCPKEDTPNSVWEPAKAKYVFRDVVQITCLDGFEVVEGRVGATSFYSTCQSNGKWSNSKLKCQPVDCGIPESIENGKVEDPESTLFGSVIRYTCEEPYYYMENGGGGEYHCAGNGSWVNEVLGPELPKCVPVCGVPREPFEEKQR
UniProt P09871, 438-688 limits assumed: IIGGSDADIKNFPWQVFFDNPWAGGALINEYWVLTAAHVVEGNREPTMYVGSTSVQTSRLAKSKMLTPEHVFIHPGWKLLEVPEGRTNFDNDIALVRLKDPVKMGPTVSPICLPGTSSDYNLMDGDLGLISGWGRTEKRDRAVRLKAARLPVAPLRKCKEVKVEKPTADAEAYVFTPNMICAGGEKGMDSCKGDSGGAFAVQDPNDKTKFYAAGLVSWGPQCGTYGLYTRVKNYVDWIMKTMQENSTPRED

This assay concerns the target Complement C1s subcomponent (Homo sapiens) (UniProt P09871). The assay is described as follows: complement C1s protease inhibitors, primary screen, biochemical, 10-compound mixtures (AID 538).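 Further: 0% = enzyme wells lacking compound mixture and 100% = no-enzyme blank wells.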 The conditions noted are these: purified C1s, fluorogenic AMC substrate, pooled mixtures; screened at 5 µM (by protocol).
Take `N/C(=N\O)c1c(N)no[n+]1[O-]`: the mean inhibition % of two 10-compound mixtures (active compounds read high) was inactive: -1.81%. As to `Fc1ccccc1NC1CCN(Cc2ccccc2)CC1`, the mean inhibition % of two 10-compound mixtures (active compounds read high) is inactive: -1.82%.

As to `CCC(CO)(C(=O)OC1CN2CCC1CC2)c1ccccc1` (configuration not stated), the mean inhibition % of two 10-compound mixtures (active compounds read high) was inactive: -20.9%. As for `CCOc1ncccc1C(=O)NCC1(N2CCOCC2)CCCCC1`, the figure is inactive: 41.7%. As for `O=C(OC1CN2CCC1CC2)C1c2ccccc2Oc2ccccc21` (configuration not stated), the figure is inactive: 5.25%; as for `COc1ccc(NC2CCN(CCc3ccccc3)CC2)c(OC)c1`, inactive: 14.8%. For the compound `N#CC1(Nc2ccccc2)CCN(CCc2ccccc2)CC1`, the mean inhibition % of two 10-compound mixtures (active compounds read high) is inactive: 6.54%.

Source of the values: PubChem BioAssay AID538 (PCMD, 2006).
